This note sets out measurements from ChEMBL document CHEMBL4043104, “Conjugates of salicylaldoximes and peripheral site ligands: Novel efficient nonquaternary reactivators for nerve agent-inhibited acetylcholinesterase” (2017).

Structures are written as SMILES.

As a reminder, the Kd is a measure of binding affinity in units of concentration.

For this experiment, the target named is Acetylcholinesterase (Homo sapiens, UniProt P22303). Nature of the experiment: Reactivation of tabun-induced inhibition of human AChE assessed as dissociation constant using acetylthiocholine as substrate preincubated for 30 mins followed by substrate addition measured at 5 to 180 mins by Ellman's method. (In general: Ellman's reagent forms a yellow product with free thiols.)
For `COc1cc2c(cc1OC)CN(CC1CCN(Cc3cc(Cl)cc(/C=N/O)c3O)CC1)CC2`, the Kd is 8.9 µM.

Take `COc1cc2c(cc1OC)CN(CC1CCN(Cc3cc(F)cc(/C=N/O)c3O)CC1)CC2`: the Kd turned out to be 53 µM.

For `COc1cc2c(cc1OC)CN(CC1CCN(Cc3cc(Br)cc(/C=N/O)c3O)CC1)CC2`, the Kd turned out to be 7.2 µM.

On to `COc1cc(/C=N/O)c(O)c(CN2CCC(CN3CCc4cc(OC)c(OC)cc4C3)CC2)c1`, for which the Kd came to 51 µM.
